# Experimental data taken from PubChem BioAssay AID460 (PCMD, 2006).
# By UniProt entry, the sequences of proteins in these tests, tags left out. Residues count along the entry.
# UniProt P07711, 114-288 limits assumed: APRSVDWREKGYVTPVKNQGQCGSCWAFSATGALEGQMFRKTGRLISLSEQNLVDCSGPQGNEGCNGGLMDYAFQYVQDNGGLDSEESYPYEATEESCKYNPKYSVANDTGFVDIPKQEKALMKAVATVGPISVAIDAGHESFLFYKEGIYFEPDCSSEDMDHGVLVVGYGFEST
# UniProt P07711, 292-333 limits assumed: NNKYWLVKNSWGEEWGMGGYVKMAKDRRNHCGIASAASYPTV
# The entries are a selection whose mix differs from that of the whole data set. Calls of active or inactive are those of the source. No stated cut-off is given here; in the data, active means inhibition above about 45%; inactive means the rest.
# Molecular target: Procathepsin L (Homo sapiens) (UniProt P07711)
# Experiment: inhibitors of human cathepsin L, biochemical (AID 460);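 further: 0% = enzyme with no compound and 100% = no enzyme blank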
# Conditions: purified cathepsin L, fluorogenic substrate, fluorescence; hits give high values;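 tested at 10 µM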
row,SMILES,inhibition
1,COc1ccccc1OP(C)(=O)Nc1ccc(C)c(C)c1 (stereo not drawn),inactive: 18.8%
2,Cc1nc2ccc3ccccc3c2o1.O=[N+]([O-])c1cc([N+](=O)[O-])c(O)c([N+](=O)[O-])c1,inactive: -6.27%
3,CP(=O)(Nc1ccccn1)Oc1ccccc1 (stereo not drawn),inactive: 14.4%
4,CCN(CC)CC(O)COC(=O)C(O)(c1ccccc1)C1CCCCC1 (stereo not drawn),inactive: 1.99%
5,COc1ccccc1OP(C)(=O)Nc1c(C)n(C)n(-c2ccccc2)c1=O (stereo not drawn),inactive: 2.05%
6,CP(=O)(Oc1ccccc1)N1CCOC1=O (stereo not drawn),inactive: -8.08%
7,CN(C)CCOC(=O)C(O)(c1ccccc1)C1CCCCC1 (stereo not drawn),inactive: -0.99%
8,CCOP(C)(=S)SCC(=O)NC(C)(CC)C(=O)O (stereo not drawn),inactive: 13.9%
9,CP(=O)(Nc1ccc2c(c1)OCCO2)Oc1ccccc1 (stereo not drawn),inactive: -12.9%
10,Cc1ccccc1NP(C)(=O)Nc1ccccc1C,inactive: 2.51%
11,CP(=O)(Nc1ccccc1F)Oc1ccccc1 (stereo not drawn),inactive: -5.78%
12,Cc1ccc(C)c(NP(C)(=O)Oc2ccccc2)c1 (stereo not drawn),inactive: -5.13%
13,Cc1nc2ccc3ccccc3c2s1.O=[N+]([O-])c1cc([N+](=O)[O-])c(O)c([N+](=O)[O-])c1,inactive: 4.29%
14,CP(=S)(Nn1cnnc1)Oc1ccccc1 (stereo not drawn),inactive: 5.24%
15,CP(=O)(NC(=O)Nc1ccccc1)Oc1ccccc1 (stereo not drawn),inactive: 4.22%
16,CCOP(C)(=S)SCC(=O)NC(C)C(=O)O (stereo not drawn),inactive: 9.35%
17,COc1ccccc1OP(C)(=O)Nc1ccc(C)cc1 (stereo not drawn),inactive: 7.95%
18,Cc1ccc(NP(C)(=O)Oc2ccccc2)c(C)c1 (stereo not drawn),inactive: -9.67%
